Measurements as given in PubChem BioAssay AID1718 (Vanderbilt High Throughput Screening Facility, 2009).
The entries are a selection whose mix differs from that of the whole data set. Results filed as inconclusive are left out. Active and inactive are the calls of the source.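 How the source made its calls: active means thallium flux slope above the same plate's solvent-control mean plus 3 SD in both duplicate wells; inconclusive means duplicate wells that disagreed; inactive means the rest.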

test: native HEK Tl+ uptake effects, second counter-screen – HEK cells, counterscreen 2, counter-screen for KCC2 modulator project, confirmation (AID 1718); details: HEK293 parental, thallium flux FluoZin-2 fluorescence slope; at 10 µM;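 further: run without ouabain in cells lacking the KCC2 cotransporter; slope of fluorescence scaled to its starting value between 10 and 20 s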
In short: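 System: untransfected HEK cells, thallium influx assay; Schedule: 37 °C overnight growth, 48 min FluoZin2-AM loading; Medium: HBSS with 20 mM HEPES for dye loading; Measured by: FluoZin2-AM fluorescence (0.5 µM), ex 480 nm, em 540 nm, kinetic 1 Hz; Read-out: thallium influx rate; Compound: single 10 µM final compound dose, 0.1% DMSO.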

SMILES | thallium flux slope
CP(=O)(Nc1ccccc1)Oc1ccc(F)cc1 (stereo unspecified) | inactive: 0.0103
